Molecular target: MBP-BAX 1-166 C62S C126S, biotinylated (Avi tag, 6-histidine tag) (human) (UniProt Q07812)
Assay: BLI; Octet RED96; biotinylated BCL-2 family proteins (25 nM) immobilised on streptavidin biosensors, designed protein in solution; 10 mM Hepes pH 7.4, 150 mM NaCl, 3 mM EDTA, 0.05% surfactant P20, 0.5% nonfat dry milk; titrations in triplicate, 1:1 binding model

Amino acid sequences for entries named in this document (tags omitted). Residues count along the entry.
UniProt Q07812, 1-166 C62S/C126S: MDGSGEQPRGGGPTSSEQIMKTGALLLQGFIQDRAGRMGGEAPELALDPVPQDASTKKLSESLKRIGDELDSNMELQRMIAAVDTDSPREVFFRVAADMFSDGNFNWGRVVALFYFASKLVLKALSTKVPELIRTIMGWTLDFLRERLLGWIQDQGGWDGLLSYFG

- Kd: 45 nM
Substance: BAX-CDP01 (BAX-targeting computationally designed protein 01) (designed binder)

From paper PMC12412652
